Assay results published in ChEMBL document CHEMBL1140703, “Design, synthesis, and biological evaluation of classical and nonclassical 2-amino-4-oxo-5-substituted-6-methylpyrrolo[3,2-d]pyrimidines as dual thymidylate synthase and dihydrofolate reductase inhibitors” (J Med Chem, 2008).

Test: Inhibition of Toxoplasma gondii thymidylate synthase

Work on Nc1nc2[nH]cc(CCc3ccc(C(=O)N[C@@H](CCC(=O)O)C(=O)O)cc3)c2c(=O)[nH]1 [PEMETREXED] yielded an IC50 of 2.8 µM.
